## scFv variants of Ab-91 (heavy chain) against a SARS-CoV-2 spike peptide

All variants were tested on one target, the spike HR2 peptide PDVDLGDISGINAS (SARS-CoV-2).

Parent: Ab-91, a human scFv built as VL, three GGGGS repeats, VH. Only the CDRs of the heavy chain vary.
VL: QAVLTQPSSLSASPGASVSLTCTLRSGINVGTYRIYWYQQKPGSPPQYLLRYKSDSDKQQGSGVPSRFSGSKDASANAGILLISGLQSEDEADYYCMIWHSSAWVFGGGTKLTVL
VH: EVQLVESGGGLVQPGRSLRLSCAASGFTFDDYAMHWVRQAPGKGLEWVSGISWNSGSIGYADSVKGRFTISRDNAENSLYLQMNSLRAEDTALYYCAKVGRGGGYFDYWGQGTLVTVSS

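Phage display of a naive human antibody library on the peptide gave the parent. The library (AAYL51) carries one to three amino acid substitutions per variant, with no insertions or deletions. The scFvs were displayed on barcoded MATa yeast, the peptide on MATalpha yeast. Mating (16 h, 30 °C) was followed by selection of diploids and sequencing of their barcodes. Scores were corrected for input abundance and mapped to Kd with protein pairs of known affinity run in the same pool. Each pool was mated in three replicate cultures.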

Each variant is given by its three heavy chain CDRs, as the data file delimits them; those of the parent are GFTFDDYAMH, GISWNSGSIGYADSVK, VGRGGGYFDY.
Affinities are written as log10 Kd with Kd in nM; a lower number is a better binder.
Where no diploid with the target was found in that replicate, the entry reads "n.d.": below detection, most likely a poor binder, though not proof of it.

| CDR-H1 | CDR-H2 | CDR-H3 | log10 Kd (nM) by replicate | signal with controls |
|---|---|---|---|---|
| GITFDDYAMH | GISWNSGSIGYEDSVK | VGRPGGYFDY | n.d. / n.d. / n.d. | 0/9 |
| GFTFDDYAMH | GISWNSGSIKYASSVK | VGRAGGYFDY | 4.62 / n.d. / n.d. | 3/9 (4.79) |
| GFTFDDYAMH | GISWNSGSIEYADSGK | VIRGGGYFDY | 5.21 / n.d. / 3.75 | 1/9 (4.35) |
| GFTFDDYAMH | GFSWNSGSIGYARSVK | VGRGGGYFDY | 3.98 / 3.66 / 3.86 | 2/9 (2.89) |
| GFTFDDYAMH | GIKWNSGSIGDADSHK | VGRGGGYFDY | 5.02 / n.d. / n.d. | 6/9 (4.90) |
| GFTFDMYAMH | GHSWNSGSIGYADSVK | VGRGGMYFDY | 4.62 / n.d. / n.d. | 1/9 (4.00) |
| GFTFDDYAMH | GISWNSGPIGYAFSVK | VGRHGGYFDY | n.d. / n.d. / 3.81 | 1/9 (2.97) |
| GFGFVDGAMH | GISWNSGSIGYADSVK | VGRGGGYFDY | 4.45 / 4.97 / n.d. | 3/9 (4.44) |
| GFTILDYAMH | GIGWNSGSIGYADSVK | VGRGGGYFDY | 3.70 / n.d. / n.d. | 1/9 (4.33) |
| GFTFRDYAMH | GISWNSGSIGYARSEK | VGRGGGYFDY | n.d. / n.d. / n.d. | 1/9 (4.20) |
| GFTFDDYAMH | GISWPSGSIGYADSVK | VGMGGGYRDY | n.d. / n.d. / n.d. | 0/9 |
| GFTFDDYAMH | GISWNSGSFGYADSRK | KGRGGGYFDY | 5.49 / n.d. / 5.34 | 1/9 (4.21) |
| GFTFDDFAMH | GISWNSGCIGYADSVK | VGRGGFYFDY | n.d. / 5.53 / 4.14 | 5/9 (4.29) |
| GFTFDDSAML | GISWNSGSFGYADSVK | VGRGGGYFDY | n.d. / 5.20 / 5.42 | 5/9 (5.16) |
| GFTFDDYAMH | GISWDSGSIGYADSVK | VGRGGGYCDC | 3.37 / n.d. / n.d. | 3/9 (4.31) |
| GFTFDDYAMH | GISWNPGSAGYADSVK | VGRGGGYHDY | 3.31 / 2.92 / n.d. | 0/9 |
| GFTFDDCAMH | GISWNSGSIGYAYSVK | VGRGGGYRDY | n.d. / n.d. / n.d. | 0/9 |
| SFTFDDYAMH | GISWNSGSPGYADSVK | VGRGGGYFRY | n.d. / n.d. / n.d. | 0/9 |
| GFTFDDYAMH | GIVWNSGSIGYADMVK | QGRGGGYFDY | 4.17 / 5.05 / n.d. | 3/9 (4.04) |
| GFTFDDYAMD | GISWNSGSIGYHDSVK | VGRGGGHFDY | n.d. / 4.79 / n.d. | 3/9 (5.32) |
| GFTFDDYAMC | GISWNSRSIGYADSVK | VGRGGIYFDY | 5.02 / n.d. / n.d. | 3/9 (5.45) |
| GFTFDDYAMH | GISLNSGSIGYADLVK | VGRGKGYFDY | 5.83 / 4.03 / 4.77 | 5/9 (4.91) |
| GFTFDDYADH | GISWNSCSIGYADFVK | VGRGGGYFDY | 5.36 / 6.07 / 5.18 | 3/9 (5.39) |
| GFTCDDYAMH | GISWNSGSCGYADSVK | TGRGGGYFDY | 6.08 / n.d. / n.d. | 1/9 (5.36) |
| GFTFYDYAMH | GISWFSGSIGYADSVK | VGRFGGYFDY | n.d. / n.d. / n.d. | 1/9 (4.53) |
| GFTFDDYAMH | GISWNSGSIGYADSVK | VGRGGQYFIY | n.d. / n.d. / n.d. | 0/9 |
| GFTFDDHAMH | GISWVSGSIGYADSVG | VGRGGGYFDY | n.d. / n.d. / n.d. | 1/9 (4.95) |
| GFTFDDYAMH | GISWNSGSIGYADSVK | HGGGHGYFDY | n.d. / 4.77 / n.d. | 5/9 (4.06) |
| GFTFVDYAMH | GISWNSGSITYADSVK | VGRGPGYFDY | 4.64 / 4.07 / n.d. | 2/9 (3.62) |
| GFTFDDYAMH | GISWNSGSIGSADSVK | MGRGGKYFDY | 4.54 / n.d. / 5.59 | 4/9 (5.34) |
| GWTFDIYAMH | GISWNSGSIGYADSVK | VGRPGGYFDY | n.d. / n.d. / n.d. | 0/9 |
| GFTFTDYAKH | GISWNSGSIGYADSVK | VGRGGRYFDY | n.d. / n.d. / n.d. | 3/9 (4.22) |
| VFTFDDQAMH | GISWNSGSIGYAVSVK | VGRGGGYFDY | n.d. / n.d. / n.d. | 0/9 |
| GFYFDDYAMH | GIVWNSGSIGYADSVK | VGLGGGYFDY | n.d. / n.d. / 4.16 | 1/9 (4.26) |

Extract of 3 entries:

| CDR-H1 | CDR-H2 | CDR-H3 | log10 Kd (nM) by replicate | signal with controls |
|---|---|---|---|---|
| GFTFDDYAMH | GFSWNSGSIGYARSVK | VGRGGGYFDY | 3.98 / 3.66 / 3.86 | 2/9 (2.89) |
| GFTFDDYAMH | GISWPSGSIGYADSVK | VGMGGGYRDY | n.d. / n.d. / n.d. | 0/9 |
| SFTFDDYAMH | GISWNSGSPGYADSVK | VGRGGGYFRY | n.d. / n.d. / n.d. | 0/9 |

Three control strains display no target. For library AAYL51, 21% of the pairings with them gave a signal, with a median of 4.54 and one signal in twenty below 3.26, so weak values seen in few replicates may be background. For each scFv, signals with the empty controls are counted beside the result, with their mean in brackets.
Parent in this assay: reference entry 1.86, copy in this library 0.88.

From the AlphaSeq antibody data of Engelhart et al. 2022 (doi:10.1038/s41597-022-01779-4), copy in the FLAb collection.